We go through two substances from US20170349641A1.

Experiment [1] has as its target Aβ42 E22e peptide (2) (Homo sapiens). Description: Thioflavin T fluorescence, 20 µM peptide, 37° C.; self-aggregation.
The target in experiment [2] is Aβ42 wild-type peptide (1) (Homo sapiens). Described as above.

Take “Aβ42 E22e peptide (2) (peptide; D-glutamate at position 22 (replaces L-glutamate 22); D-glutamate at position 22 (replaces L-glutamate 22); other documents disagree on this pair)”: the t1/2 of fibril formation (self-association) in experiment [1] was found to be 65.6 min.
With “Aβ42 wild-type peptide (1) (peptide; other documents disagree on this pair)”, in experiment [2], the t1/2 of fibril formation (self-association) worked out at 13.4 min.
